Experiments:
[1] = molecular target: T1, CXCR4 (Homo sapiens, UniProt P61073); test: Inhibition of CXCL12-induced chemotaxis (transwell); assay type: cell-based; conditions: read-out: inhibitory efficacy on chemotaxis induced by 10 nM CXCL12; A3.01R5 cells, 10 µM compound in upper and lower chambers
Method: (§1) We next investigated whether the bis-imidazoline compounds act as CXCR4 agonists or antagonists.
(§2) Cells (1.5 × 10^5) in prewarmed RPMI-1640 medium supplemented with 20 mM HEPES and 1% human serum AB were added to the top chambers of HTS-Transwell-96 Well Permeable Supports with polycarbonate membrane of 5 μm pore size (Corning, New York, USA). […] Cells were allowed to migrate for 5 h at 37 °C in humidified air with 5% CO2. The number of cells migrating across the polycarbonate membrane was then assessed by flow cytometry with a FACS CantoII (BD Biosciences).
Figure 2 Bis-imidazoline compounds behave as specific CXCR4 antagonists. […] Results (means ± SEM of technical duplicates) were normalized for nonspecific binding (0%) and specific binding in the absence of competitors (B0, 100%) and were fitted to a one-site competitive binding model. A representative experiment out of five independent experiments is shown. […] Results represent the number of cells that migrated from the upper to the lower chamber of a transwell system. The number of cells that migrated in response to bis-imidazolines was similar to spontaneous migration. The number of input cells was 1.5 × 10^5. A representative experiment out of four is shown. […] Means ± SD of three experiments performed in duplicate are shown. The black dots represent the different replicates. […] Results represent the proportion of viable cells among all the cells. Cells were incubated ON at 37 °C in the presence or absence of 10 μM of the indicated molecules. A representative experiment out of two is shown. […] Experiments were performed as in (D) in the presence of 3 nM of the CCR5 agonist PSC-CCL5 placed in the lower chamber.

Amino acid sequences for entries named in this document (tags omitted).
UniProt P61073, whole entry: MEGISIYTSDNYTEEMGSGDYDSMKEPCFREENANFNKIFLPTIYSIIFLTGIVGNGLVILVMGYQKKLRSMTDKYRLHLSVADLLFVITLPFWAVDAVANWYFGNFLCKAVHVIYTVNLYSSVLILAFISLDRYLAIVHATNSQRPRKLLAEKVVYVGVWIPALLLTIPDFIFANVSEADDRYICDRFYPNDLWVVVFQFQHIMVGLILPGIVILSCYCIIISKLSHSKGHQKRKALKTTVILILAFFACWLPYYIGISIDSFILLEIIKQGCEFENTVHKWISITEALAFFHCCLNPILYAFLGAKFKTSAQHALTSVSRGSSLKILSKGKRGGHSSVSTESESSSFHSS
UniProt P51681, whole entry: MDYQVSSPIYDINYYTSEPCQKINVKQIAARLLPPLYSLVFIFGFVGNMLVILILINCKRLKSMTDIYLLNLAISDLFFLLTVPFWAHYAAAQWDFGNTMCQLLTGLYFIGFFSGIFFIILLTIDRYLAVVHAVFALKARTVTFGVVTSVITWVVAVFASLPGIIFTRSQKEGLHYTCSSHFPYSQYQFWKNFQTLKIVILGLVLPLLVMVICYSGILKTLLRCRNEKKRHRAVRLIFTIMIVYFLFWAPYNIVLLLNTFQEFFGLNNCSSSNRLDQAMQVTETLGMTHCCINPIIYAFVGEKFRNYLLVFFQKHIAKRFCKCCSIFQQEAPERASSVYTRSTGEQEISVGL

[2] = molecular target: T1, CXCR4; test: anti-CXCR4 mAb 12G5 binding (saturation and competition) to A3.01 cells, flow cytometry; conditions: mAb 12G5 as tracer
[3] = molecular target: CCR5 (Homo sapiens, UniProt P51681); test: Inhibition of PSC-CCL5-induced, CCR5-dependent chemotaxis of A3.01R5 cells; assay type: cell-based; conditions: 3 nM PSC-CCL5, 10 µM compound
Method: as §1, §2
Figure 2 Bis-imidazoline compounds behave as specific CXCR4 antagonists. […] Results (means ± SEM of technical duplicates) were normalized for nonspecific binding (0%) and specific binding in the absence of competitors (B0, 100%) and were fitted to a one-site competitive binding model. A representative experiment out of five independent experiments is shown. […] Results represent the number of cells that migrated from the upper to the lower chamber of a transwell system. The number of cells that migrated in response to bis-imidazolines was similar to spontaneous migration. The number of input cells was 1.5 × 10^5. A representative experiment out of four is shown. […] Means ± SD of three experiments performed in duplicate are shown. The black dots represent the different replicates. […]

## C(CCCCNC1=NCCN1)CCCNC1=NCCN1 [mr20347]
[1]
  inhibition at 10 µM: 92%
[2]
  IC50: 2640 ± 340 nM

## C(CCCCNC1=NCCN1)CCCCNC1=NCCN1 [mr20348]
[2]
  IC50: 1880 ± 180 nM

## C(CCCCCNC1=NCCN1)CCCCNC1=NCCN1 [mr20349]
[1]
  inhibition at 10 µM: 53%
[2]
  IC50: 1280 ± 800 nM

## C(CCCCCCNC1=NCCN1)CCCCCNC1=NCCN1 [mr20350]
[1]
  inhibition at 10 µM: 75%
[2]
  IC50: 1800 ± 1030 nM
[3]
  decrease of migration induced by CCR5 agonist PSC-RANTES/CCL5: only slightly

## C(CCCCCNC1=NCCN1)CCCCCNC1=NCCN1 [mr34200]
[2]
  IC50: 4230 ± 1600 nM
